pEC50: −log10 of the molar value.
Columns and labels:
Experiment in all cases: ELISA, titrated test article
[1] = target: cynomolgus monkey CD3 (ELISA antigen) (cynomolgus monkey)
[2] = target: human CD3 (ELISA antigen) (human)
[3] = target: rat CD3 (ELISA antigen) (rat)
[4] = target: mouse CD3 (ELISA antigen) (mouse)

Substance “PC-1-MMP cleaved (matrix metalloprotease cleaved PC-1, MMP9 treated) (bispecific antibody)” has a pEC50 [1] of 10.05, a pEC50 [2] of 10.05 and a pEC50 [3] of 6.38.
“PC-1-SP cleaved (serine protease cleaved PC-1, MTSP1 treated) (bispecific antibody)” gave a pEC50 [1] of 10.10, a pEC50 [2] of 10.10 and a pEC50 [3] of 6.27.
With “PC-1-TCE (non-masked EGFR x CD3 bispecific T cell engager) (bispecific antibody)” the pEC50 [4] was 6.12 and the pEC50 [3] was 7.70.

Reference: patent US20250297017A1
